Test results taken from PubChem BioAssay AID1777 (Sanford-Burnham Center for Chemical Genomics, 2009).
The list shows a part of the results. Measured potencies and affinities stand elsewhere. Active and inactive are the calls of the source. No stated cut-off is given here; in the data, active means activation above about 50% (passing the limit was not always enough); inactive means the rest.

Chains of the proteins cited; added tags and fusions are not shown. Lines headed by an entry give the natural chain unless they say otherwise; changes in a name come on top.
UniProt P41145: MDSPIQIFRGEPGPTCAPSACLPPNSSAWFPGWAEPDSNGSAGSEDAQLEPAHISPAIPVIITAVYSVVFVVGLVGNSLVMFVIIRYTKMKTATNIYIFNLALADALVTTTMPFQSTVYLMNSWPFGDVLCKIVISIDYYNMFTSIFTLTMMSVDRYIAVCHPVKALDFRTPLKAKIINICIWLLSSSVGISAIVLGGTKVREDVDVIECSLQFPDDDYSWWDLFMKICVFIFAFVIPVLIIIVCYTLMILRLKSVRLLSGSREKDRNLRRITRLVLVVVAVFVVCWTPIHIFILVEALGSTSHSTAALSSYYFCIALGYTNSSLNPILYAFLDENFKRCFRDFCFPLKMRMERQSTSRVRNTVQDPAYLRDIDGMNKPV

molecular target: Kappa-type opioid receptor (Homo sapiens) (UniProt P41145); test: KOR agonists, beta-arrestin recruitment, primary screen, cell-based, luminescence, uHTS (AID 1777); conditions: at 10 µM, active compounds read high

Row | SMILES | activation
1 | O=[N+]([O-])c1cccc2n[nH]nc12 | inactive: 1.4%
2 | CSCC[C@H](NC(=O)N1CCn2c1nc1ccccc12)C(=O)NCc1ccc2c(c1)OCO2 | inactive: 0.4%
3 | O=S(=O)(c1ccc(Cl)cc1)N1CCn2c1nc1ccccc12 | inactive: 4.5%
4 | CC(/C=N/NC(=O)Cn1cnc2ccccc21)=C\c1ccccc1 | inactive: 1%
5 | COc1ccc(Cc2nnc(NC(=O)Cn3cnc4c3c(=O)n(C)c(=O)n4C)s2)cc1OC | inactive: 6.5%
6 | CCCn1c(=O)c2c(nc3n2CCN3Cc2ccco2)n(C)c1=O | inactive: -0.2%
7 | CCN(CC)CCn1c(=N)n(CC(=O)c2ccc(Br)s2)c2ccccc21 | inactive: 1.3%
8 | O=S(=O)(c1ccccc1)c1nnn2c1nc(NC1CCN(Cc3ccccc3)CC1)c1cc(Cl)ccc12 | inactive: 3.1%
9 | CCN(CC)c1ccc(NC(=O)Cn2c(C(C)NC(=O)c3ccc(C)cc3)nc3ccccc32)cc1 (stereo unspecified) | inactive: 1%
10 | COc1cc(/C=N/NC(=O)Cn2cnc3c2c(=O)n(C)c(=O)n3C)cc(OC)c1OC | inactive: 0.6%
11 | O=C(NC1CCCCC1)C(c1ccccc1)N(Cc1ccco1)C(=O)Cn1cnc2ccccc21 (stereo unspecified) | inactive: 3.7%
12 | CSCC[C@H](NC(=O)N1CCn2c1nc1ccccc12)C(=O)NC1CC1 | inactive: -5%
13 | CCOc1ccc(NC(=S)N2CCn3c(nc4ccccc43)C2)cc1 | inactive: 2.5%
14 | CCOc1ccc(CNc2nc3ccccc3n2CCN2CCOCC2)cc1 | inactive: -1.3%
15 | Cn1c(=O)c2c(nc(CN3CCN(Cc4ccccc4)CC3)n2CCN2CCOCC2)n(C)c1=O | inactive: -1.1%
16 | CC(NC(=O)Cn1c(NCCO)nc2ccccc21)c1ccccc1 (stereo unspecified) | inactive: -5.5%
17 | CCC(C)N(C(=O)Cn1c(Cl)nc2c1c(=O)n(C)c(=O)n2C)C1CCS(=O)(=O)C1 (stereo unspecified) | inactive: -7.1%
18 | Brc1cccc(CNc2nc3ccccc3n2CCN2CCCCC2)c1 | inactive: 10.1%
19 | O=C(Cn1cnc2ccccc21)Nc1ccccc1-c1ccccc1 | inactive: 0.4%
20 | COc1ccc(OC)c(CNc2nc3ccccc3n2CCN2CCCCC2)c1 | inactive: 1.7%
21 | CCSc1nc2ccccc2n1CC(N)=O | inactive: -2%
22 | O=C(Cn1cnc2ccccc21)N/N=C/c1ccco1 | inactive: 8.9%
23 | COCCN1CCn2c(nc3cc(NS(C)(=O)=O)ccc32)C1 | inactive: -1.3%

Row | SMILES | activation
24 | COc1ccc(CNc2nc3ccccc3n2CCN2CCCCC2)cc1 | inactive: -7.2%
25 | Cc1cccc(OCC(O)Cn2c(=N)n(CCN3CCCCC3)c3ccccc32)c1 (stereo unspecified) | inactive: -0.5%
26 | Cn1c(=O)[nH]c(=O)c2c1nc(N1CCCCCC1)n2CC(N)=O | inactive: -0.8%
27 | COc1ccc(-c2nn(-c3ccccc3)cc2C(=O)N2c3ccc(C)cc3C3CN(C)CCC32)cc1 (stereo unspecified) | inactive: 1.7%
28 | Nc1nonc1-c1nc2ccccc2n1CC(=O)N/N=C/c1ccc(-c2ccccc2C(=O)O)o1 | inactive: 9.1%
29 | CC(=O)NC(C)c1nc2ccccc2n1CC(=O)NC(C)CCc1ccccc1 (stereo unspecified) | inactive: -3.1%
30 | CCOC(=O)c1cccc(NC(=O)Cn2cnc3c2c(=O)n(C)c(=O)n3C)c1 | inactive: 0.2%
31 | Cn1c(=O)c2c(nc(CN3CCN(C(c4ccccc4)c4ccccc4)CC3)n2CC(N)=O)n(C)c1=O | inactive: 3.9%
32 | CCc1cccc(C)c1NC(=O)CSc1nc2ccccc2n1CC(=O)N(C)C | inactive: 8.2%
33 | COc1ccc(N2CCn3c2nc2c3c(=O)n(CCc3ccccc3)c(=O)n2C)c(OC)c1 | inactive: 4.9%
34 | CCN1C(=O)CC(n2c(C)nc3ccccc32)C1=O (stereo unspecified) | inactive: -10.2%
35 | CCc1ccc(NC(=O)Cn2cnc3c(=O)n(C)c(=O)n(C)c32)cc1 | inactive: -1.8%
36 | CCS(=O)(=O)c1nc2ccccc2n1CC(=O)N1CCCCC1 | inactive: -2.6%
37 | CCC(C(=O)NC1CCCCC1)n1c(SCc2cccc(F)c2)nc2ccncc21 (stereo unspecified) | inactive: -0.5%
38 | CC(/C=N/NC(=O)Cn1cnc2c1c(=O)n(C)c(=O)n2C)=C\c1ccccc1 | inactive: 0.2%
39 | CC(C)C[C@H](NC(=O)N1CCn2c1nc1ccccc12)C(=O)N[C@H](Cc1ccccc1)C(=O)O | inactive: -5.3%
40 | CC(C)c1ccccc1NC(=O)Cn1c(-c2ccccc2Cl)nc2ccccc21 | inactive: -2.3%
41 | c1ccc(CNc2nc3ccccc3n2CCN2CCOCC2)nc1 | inactive: -9.4%
42 | Cn1c(=O)n(CC(=O)N2CCOCC2)c2ccccc21 | inactive: 11.2%
43 | O=P(Nc1nccs1)(c1ccccc1)c1ccccc1 | inactive: 14%
44 | CC(C)C(=O)NC(Sc1ccccc1)C(Cl)(Cl)Cl (stereo unspecified) | inactive: -3.5%
45 | COc1ccc(OCC(O)Cn2c(=N)n(CCN3CCCCC3)c3ccccc32)cc1 (stereo unspecified) | inactive: -5.2%
46 | N#CCCN1CCn2c1nc1ccccc12 | inactive: -4.1%

Row | SMILES | activation
47 | Cn1c(=O)c2ncn(CC(=O)N/N=C/c3ccco3)c2n(C)c1=O | inactive: -5.7%
48 | CC1CCCC(C)N1C(=O)Cn1c(SCC(=O)Nc2ccc3c(c2)OCO3)nc2ccccc21 (stereo unspecified) | inactive: 1.8%
49 | Cn1c(=O)c2c(ncn2CC(=O)N2CCN(S(=O)(=O)c3ccccc3)CC2)n(C)c1=O | inactive: 1.3%
50 | c1ccc2c(c1)nc1n2CCN1CCN1CCCC1 | inactive: 1.9%
51 | CCN(CC)CCn1c(=N)n(CC(O)c2ccc(OC)c(OC)c2)c2ccccc21 (stereo unspecified) | inactive: -3.2%
52 | O=C(c1cccs1)N1CCn2c1nc1ccccc12 | inactive: 6.2%
53 | CCN(CC)CCn1c(=N)n(CC(O)COc2cccc(C)c2)c2ccccc21 (stereo unspecified) | inactive: 0.1%
54 | CC(C)C[C@H](NC(=O)N1CCn2c1nc1ccccc12)C(=O)NC1CC1 | inactive: 3.7%
55 | CCN(CC)C(=O)CSc1nc2ccccc2n1CC(=O)N1CCN(c2ccccc2OC)CC1 | inactive: -0.6%
56 | c1nnnn1CCn1cnnn1 | inactive: -2%
57 | CCC(=O)Nc1cccc(C(=O)/C=C/c2ccccc2)c1 | inactive: 2.5%
58 | CCN(CC)CCn1c(NCc2nc3ccccc3n2Cc2ccccc2)nc2ccccc21 | inactive: 9.7%
59 | CCOc1ccc(CCNC(=O)Cn2c(-c3nonc3N)nc3ccccc32)cc1OCC | inactive: -1.3%
60 | CSc1nc2ccccc2n1CC(=O)Nc1cc(C(F)(F)F)ccc1N1CCOCC1 | inactive: -7%
61 | O=C(CCCCCNC(=O)N1CCn2c1nc1ccccc12)NCc1ccccc1 | inactive: 10.4%
62 | CCNC(=O)Cn1cnc2c1c(=O)n(C)c(=O)n2C | inactive: -5.8%
63 | O=C(Cn1c(CO)nc2ccccc21)Nc1cc(C(F)(F)F)ccc1N1CCOCC1 | inactive: -3.6%
64 | Cc1ccc(NC(=O)Cn2c(/C=C/c3ccccc3)nc3ccccc32)cc1C | inactive: 7.9%
65 | Cc1ccc(-c2csc(N3CCC[C@@H]3C(=O)NCCn3c(-c4ccncc4)nc4ccccc43)n2)cc1 | inactive: -2.1%
66 | O=C(Cn1cnc2ccccc21)N/N=C/c1ccccc1 | inactive: -4%
67 | CCOC(=O)Cn1c(=O)oc2cc(S(=O)(=O)N3CCn4c3nc3ccccc34)ccc21 | inactive: -1.9%
68 | Cc1nc2ccc(S(=O)(=O)NC(C(=O)N3CCn4c3nc3ccccc34)C(C)C)cc2s1 (stereo unspecified) | inactive: 1.8%
69 | CCN(CC)CCn1c(NC(=O)c2ccccc2O)nc2ccccc21 | inactive: 7%

Row | SMILES | activation
70 | O=[As](O)(c1ccccc1)c1ccc(O)cc1 | inactive: 4.2%
71 | O=C(Cn1c(=O)n(CC2CS2)c2ccccc21)N1CCCCC1 (stereo unspecified) | inactive: 8.6%
72 | CCOc1ccc(NC(=O)N2CCC(n3c(=O)[nH]c4ccccc43)CC2)cc1 | inactive: 1.2%
73 | Cc1nc2cc(C(F)(F)F)ccc2n1C1CCN(Cc2nnnn2Cc2cccs2)CC1 | inactive: -2.7%
74 | COCC(C)NC(=O)Cn1c(SCc2ccccc2)nc2ccccc21 (stereo unspecified) | inactive: 1.4%
75 | OC1(c2ccccc2)CCN(Cc2ccccc2)CC1 | inactive: -0.2%
76 | N=c1n(CCN2CCOCC2)c2ccccc2n1CC(=O)c1ccc(Cl)c(Cl)c1 | inactive: -0.8%
77 | CCn1nccc1C(=O)Nc1nc2ccccc2n1CCN1CCCCC1 | inactive: -2.2%
78 | O=[N+]([O-])c1ncn(CCn2cnc([N+](=O)[O-])n2)n1 | inactive: 4.5%
79 | CC(=O)NC(SC(=S)N(C)C)C(Cl)(Cl)Cl (stereo unspecified) | inactive: -1.8%
80 | O=[N+]([O-])c1ccc(O)c(/C=N/Nc2ccc([N+](=O)[O-])cc2[N+](=O)[O-])c1 | inactive: -4.7%
81 | CCOC(=O)C1=C(Cn2cnc3ccccc32)NC(=O)NC1c1cc(C)ccc1C (stereo unspecified) | inactive: -3.8%
82 | O=C(Nc1cccc(F)c1)N1CCC(n2c(=O)[nH]c3ccccc32)CC1 | inactive: 2.7%
83 | O=C(OC1CN2CCC1CC2)c1cccc(Cl)c1 (stereo unspecified) | inactive: -1.5%
84 | CCn1c(N)[n+](CC(=O)Nc2ccc(SC(F)F)cc2)c2ccccc21 | inactive: 0.3%
85 | CC(C)C[C@H](NC(=O)N1CCn2c1nc1ccccc12)C(=O)N[C@@H](Cc1ccccc1)C(=O)O | inactive: -0.8%
86 | COc1ccc(N2C(=O)CC(N3CCC(n4c(=O)[nH]c5ccccc54)CC3)C2=O)cc1 (stereo unspecified) | inactive: 1.7%
87 | O=C(Cn1c(CC(=O)N2CCCC2)nc2ccccc21)NCc1ccccc1 | inactive: -0.7%
88 | COCCOC(=O)C1=C(C)N=C2SCCC(=O)N2C1/C=C/c1ccccc1 (stereo unspecified) | inactive: -8.6%
89 | Cc1ccc2c(c1)C1CN(C)CCC1N2C(=O)/C=C/c1ccc2c(c1)OCO2 (stereo unspecified) | inactive: 0.2%
90 | COc1cc(C(=O)OCCn2c(=O)c3c(ncn3CCN(C)C)n(C)c2=O)cc(OC)c1OC | inactive: 3.4%
91 | CSCC[C@H](NC(=O)N1CCn2c1nc1ccccc12)C(=O)NCc1ccc(F)cc1 | inactive: 7.3%
